The assay deals with PLK-1 (Homo sapiens (Human), UniProt P53350). Put plainly: Biochemical assay for inhibitors of PLK-1 kinase activity (trans-phosphorylation, 33P-ATP, Dowex resin). The following applies: PLK-1 3 nM, 40 microM ATP, 85 microM alpha-casein. The source says:
Reagents/Assay Conditions
• i. Dowex Resin Preparation
Three cycles of mixing are done immediately after the addition of the resin.

Amino acid sequences for entries named in this document (tags omitted). Residues count along the entry.
UniProt P53350, 2-345: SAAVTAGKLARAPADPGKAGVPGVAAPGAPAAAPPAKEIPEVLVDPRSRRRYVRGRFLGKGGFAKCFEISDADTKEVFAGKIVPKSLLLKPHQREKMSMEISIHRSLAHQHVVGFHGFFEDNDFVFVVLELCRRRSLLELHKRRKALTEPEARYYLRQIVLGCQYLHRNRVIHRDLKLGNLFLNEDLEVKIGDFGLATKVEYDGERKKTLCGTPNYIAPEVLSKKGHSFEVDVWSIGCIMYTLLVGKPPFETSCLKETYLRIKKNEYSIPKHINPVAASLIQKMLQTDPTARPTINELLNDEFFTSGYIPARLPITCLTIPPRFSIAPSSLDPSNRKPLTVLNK

Turning to `CN1CCN(c2ccc(OC(F)(F)F)c(Nc3ncc4c(n3)-c3c(c(C(N)=O)nn3C)CC4)c2)CC1` [Code A51B1C1Z, 1-Methyl-8-[5-(4-methyl-piperazin-1-yl)-2-trifluoromethoxy-phenylamino]-4,5-dihydro-1H-pyrazolo[4,3-h]quinazoline-3-carboxamide], the IC50 (in general, the midpoint of a concentration-inhibition curve) came out at 1 nM.

The values are drawn from patent publication US8614220B2, “Substituted pyrazolo-quinazoline derivatives, process for their preparation and their use as kinase inhibitors” (priority 2006, dated 2013).
